# Assay results published in US7582649B2, “Hydroxy alkyl substituted 1,3,8-triazaspiro[4.5]decan-4-one derivatives useful for the treatment of ORL-1 receptor mediated disorders” (Janssen Pharmaceutica, NV, priority 2002, dated 2009).
# The chains behind the UniProt entries cited, without tags or fusion partners. Where a name states a change or a piece, a line headed by the entry shows the natural chain unless it says otherwise.
# UniProt P41145: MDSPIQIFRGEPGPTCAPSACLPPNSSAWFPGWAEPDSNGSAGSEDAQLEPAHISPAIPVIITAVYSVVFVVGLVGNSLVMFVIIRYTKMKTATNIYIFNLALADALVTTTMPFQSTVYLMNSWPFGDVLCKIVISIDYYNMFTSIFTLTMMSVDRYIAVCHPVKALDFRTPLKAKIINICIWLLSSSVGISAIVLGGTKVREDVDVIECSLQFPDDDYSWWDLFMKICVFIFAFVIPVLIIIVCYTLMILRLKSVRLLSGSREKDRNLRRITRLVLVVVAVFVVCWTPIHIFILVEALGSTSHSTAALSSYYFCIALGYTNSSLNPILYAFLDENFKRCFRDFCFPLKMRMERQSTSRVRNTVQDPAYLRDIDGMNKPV
# UniProt P35372: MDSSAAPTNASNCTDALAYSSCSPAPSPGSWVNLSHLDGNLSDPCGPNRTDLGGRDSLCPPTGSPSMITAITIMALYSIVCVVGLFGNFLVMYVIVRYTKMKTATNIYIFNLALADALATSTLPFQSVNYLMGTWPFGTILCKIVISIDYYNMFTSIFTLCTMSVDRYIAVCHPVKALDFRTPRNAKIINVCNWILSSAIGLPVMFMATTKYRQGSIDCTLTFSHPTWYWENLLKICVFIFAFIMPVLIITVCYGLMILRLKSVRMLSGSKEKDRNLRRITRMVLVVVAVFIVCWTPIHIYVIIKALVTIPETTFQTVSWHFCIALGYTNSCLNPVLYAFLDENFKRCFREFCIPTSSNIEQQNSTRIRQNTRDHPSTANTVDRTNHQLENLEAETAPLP
# UniProt P41143: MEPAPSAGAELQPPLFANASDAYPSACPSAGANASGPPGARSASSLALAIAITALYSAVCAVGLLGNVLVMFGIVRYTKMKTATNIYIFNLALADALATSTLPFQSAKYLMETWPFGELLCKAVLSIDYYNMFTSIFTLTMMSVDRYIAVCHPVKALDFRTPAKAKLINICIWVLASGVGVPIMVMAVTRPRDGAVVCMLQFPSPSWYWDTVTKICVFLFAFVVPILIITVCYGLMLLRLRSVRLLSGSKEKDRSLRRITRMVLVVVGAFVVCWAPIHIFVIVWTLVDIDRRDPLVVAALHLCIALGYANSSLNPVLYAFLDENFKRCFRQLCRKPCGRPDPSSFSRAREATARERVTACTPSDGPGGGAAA
# How the values were obtained:
# kappa opioid receptor = kappa opioid receptor (Homo sapiens, UniProt P41145); assay: Filtration binding assay: kappa opioid receptor; details: read-out: Kappa IC50; mean where tested more than once
# mu opioid receptor = mu opioid receptor (Homo sapiens, UniProt P35372); assay: Filtration binding assay: mu opioid receptor; details: read-out: Mu IC50; mean where tested more than once
# delta opioid receptor = delta opioid receptor (Homo sapiens, UniProt P41143); assay: Filtration binding assay: delta opioid receptor; details: read-out: Delta IC50; mean where tested more than once
substance,measurement,setting,value
"(R)-8-Acenaphthen-1-yl-1-(4-fluoro-phenyl)-3-(R)-oxiranylmethyl-1,3,8-triazaspiro[4.5]decan-4-one",IC50,kappa opioid receptor,438 nM
same,IC50,mu opioid receptor,382 nM
same,IC50,delta opioid receptor,> 10000 nM
